# Test system: chlorine-induced mortality
# Test: Chlorine-induced mortality model in rabbits
compound,measurement,setting,value
CC(=N)NCCSCC[C@H](N)C(=O)O,protection from chlorine-induced mortality (survival),"chlorine at LD50 dose (150 ppm for 20 minutes), treated 1 hour after end of exposure, followed 24 hours, FIG. 10A",complete protection from chlorine-induced mortality
same,severity of ALI as measured by SpO2/FiO2 ratios,"rabbits that survived 24 hours, vehicle-treated versus GW274150-treated, FIG. 10B","vehicle-treated rabbits that survived displayed significantly more severe ALI, as measured by SpO2/FiO2 ratios, than GW274150-treated rabbits"
